# Target: Spermidine/spermine Ni-acetyltransferase family member 2 (human) (UniProt Q96F10)
# Amino acid sequences for entries named in this document (tags omitted). A change or cut given only in a name is not applied to a line headed by its entry.
# UniProt Q96F10: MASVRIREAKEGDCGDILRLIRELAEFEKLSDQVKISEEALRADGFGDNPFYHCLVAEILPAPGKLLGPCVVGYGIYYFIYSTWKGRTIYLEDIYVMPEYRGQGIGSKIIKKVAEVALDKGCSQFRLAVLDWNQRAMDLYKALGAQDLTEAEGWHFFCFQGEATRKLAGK
substance,measurement,value
biotinylated full-length Dengue virus capsid (DENV C) protein,Signal Intensity,1010
same,Z-score,3.9

# Reference: patent US20170158742A1
